The values that follow are results of earlier work, collected in patent US9439898B2, “Methods for novel drug discovery, treatment and selective targeting for gefitinib-resistant non-small-cell lung cancer harboring T790M mutation” (Macau University of Science and Technology, priority 2014, dated 2016).

Molecules are shown by their SMILES.

Test systems include H1975(EGFR^L858R+T790M); HCC827(EGFR^L858R); A549 (EGFR^wild-type).
Holding throughout (conditions): cited from earlier work
The test system of series [1] is H1650 (EGFR^Exon19 deletion).

For `COc1cc2ncnc(Nc3ccc(F)c(Cl)c3)c2cc1OCCCN1CCOCC1` [Gefitinib], the Gefitinib resistance entry with H1975(EGFR^L858R+T790M) was “resistance”; in the series on HCC827(EGFR^L858R), “sensitive”; in series [1], “resistance”; in the series on A549 (EGFR^wild-type) it was “resistance”.
